Screening data from PubChem BioAssay.
An excerpt weighted towards active compounds, which were near 2.8% of everything screened.
PGC1a acetyl inh = lowers PGC1a acetylation signal in U2OS cells; inhibition, % at 15.6 µM; AlphaScreen anti-acetyl-lysine; with virally co-expressed GCN5 acetyltransferase; actives 0.17% (n = 350,000);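 active means every replicate shows inhibition of at least 40%; inconclusive means mean inhibition at least 40% but some replicate below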;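 further: 0% = neutral control wells and 100% = positive control wells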
PglD DTNB = inhibitors of Campylobacter jejuni PglD acetyltransferase. inhibition, % at 12.5 µM. actives 0.098% (n = 360,000). AID 602405. purified PglD enzyme, DTNB colorimetric CoA detection; in the data active means inhibition above about 16%, passing the limit was not always enough; inconclusive means no clear call, values can overlap the other calls
E-sel inducer = E-selectin induction on HUVECs | P16581 | HUVEC E-selectin immunofluorescence imaging; normalized: neutral wells 0, TNF-alpha wells 100 | activation, % at 7.58 µM | actives 0.37% (n = 260,000);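 active means mean E-selectin-positive cell signal at least 10% of the positive control, reached in at least 60% of replicates, without over 20% cell loss; inconclusive means no rule given, readout overlaps actives, possibly toxicity-flagged; inactive means the rest, including those meeting only one limit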
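Assay system: HUVEC, human umbilical vein endothelial cells / Amount: 3,000 HUVEC/well / Controls: TNF-alpha positive control, DMSO neutral control / Compound dosing: single concentration / Medium: EGM-2 over gelatin coat / Evaluation: percent E-selectin-positive cells / Signal: immunofluorescence imaging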
C2C12 statin = suppression of simvastatin myotoxicity | rescue of ATP level, % at 7.49 µM | AID 602340 | C2C12 myotubes + simvastatin, ATP luminescence, 48 h; scaled: DMSO 0, geranylgeraniol control 100 | actives 0.78% (n = 330,000);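 active means mean ATP rescue above about 67%, or every replicate alone reaching that limit, limit read from the data, passing the limit was not always enough; inconclusive means no clear call, values can overlap the other calls; inactive means mean under the limit and some replicate under it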;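 further: myotubes were challenged with 10 µM simvastatin during compound exposure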
esBAF inh = blocks esBAF chromatin remodeling in mouse ES cells; Bmi1-luciferase knock-in reporter, 24 h; 100% = twice the neutral-well signal; reporter increase, % at 12.5 µM; actives 2% (n = 350,000); AID 602393; in the data active means activation above about 40%; inconclusive means no clear call, values can overlap the other calls;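 further: 0% = median of the plate's neutral control wells and 100% = double that signal; a rise in the Bmi1 reporter signal indicates esBAF inhibition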
UUG fidelity = alters start codon recognition fidelity in yeast. S. cerevisiae UUG-firefly luciferase reporter, luminescence/redox ratio. AID 602363. activity score, % at 18.7 µM. hit rate 0.13% among 350,000;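 active = replicate mean at a twofold rise or more, about +100% in these data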;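 note: firefly luciferase made from a UUG start codon reports start codon fidelity; reporter light over untreated wells divided by growth signal over untreated wells; some hits fall short of that in this replicate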
Active calls of the source: *; ? = inconclusive; / = no result given.

SMILES	PGC1a acetyl inh	PglD DTNB	E-sel inducer	C2C12 statin	esBAF inh	UUG fidelity
C[C@@H]1CCCCO[C@H](CN(C)Cc2ccncc2)[C@H](C)CN([C@@H](C)CO)C(=O)c2cc(NC(=O)Nc3ccc(C(F)(F)F)cc3)ccc2O1	7	0	0	/	4	9
N#Cc1cccc(C#N)c1NCC1CCCO1 (stereo not drawn)	43*	6	0	2	-5	-15
c1ccc(N2CCN(c3nc4cc5c(cc4s3)OCO5)CC2)cc1	13	4	1	1	49*	-2
CC(C)C(=O)Nc1nc2cc3c(cc2s1)OCCO3	1	/	6	-1	-6	/
c1ccc2sc(Nc3nc4cc5c(cc4s3)OCO5)nc2c1	-10	-1	/	-9	69*	-22
CC(=O)Nc1nc2cc3c(cc2s1)OCO3	/	3	0	-4	57*	-24
Brc1cc2c(cc1/C=N/Nc1nc3ccccc3s1)OCO2	-11	-1	/	-25	68*	-5
Fc1ccc2nc(Nc3nc4cc5c(cc4s3)OCCO5)sc2c1	-3	-3	0	/	/	-7
O=C(O)C/C(=C\c1cc2c(cc1Br)OCO2)c1nc2ccccc2s1	-11	2	/	3	4	-14
c1c2c(cc3sc(N4CCOCC4)nc13)OCO2	1	-2	/	-18	-22	-42
O=C(C[C@H]1CC[C@@H]2[C@H](COC[C@@H](O)CN2Cc2cccc(F)c2)O1)NCCc1ccncc1	0	0	0	0	-1	-24
CCS(=O)(=O)N1CCC2(CC1)CN(S(=O)(=O)c1ccccc1)[C@@H](CO)c1c2c2ccc(OC)cc2n1C	-25	/	0	/	/	/
CC(C)NC(=O)Nc1ccc2c(c1)C(=O)N([C@@H](C)CO)C[C@H](C)[C@@H](CN(C)Cc1ccc(-c3ccccc3)cc1)O2	2	5	1	-6	1	/
COc1cccc(Nc2nc(-c3sc(NC(=O)CC(C)C)nc3C)cs2)c1	3	3	/	-30	0	-12
COc1cccc(Nc2nc(-c3sc(NC(=O)c4ccccc4)nc3C)cs2)c1	2	-3	/	-5	52*	0
O=C(Nc1ccccn1)c1ccc(Cl)c(S(=O)(=O)N2CCCCCC2)c1	/	-4	0	-32	83*	4
Cc1ccnc(NC(=O)c2ccc(Cl)c(S(=O)(=O)N3CCCCC3)c2)c1	/	1	/	-4	57*	1
Brc1ccc2oc3c(N4CCOCC4)ncnc3c2c1	-19	-1	/	-36	48*	-16
CS(=O)(=O)Nc1ccc(C(=O)CSc2nnc(C3CC3)n2C2CC2)cc1	4	-1	/	0	4	-9
O=C(CSc1nnc(C2CC2)n1C1CC1)c1ccc(F)c(F)c1	3	-1	-2	-7	26	-22
Cc1ccc(C(=O)CSc2nnc(C3CC3)n2C2CC2)s1	/	-6	1	1	46*	-17
CCc1ccc(C(=O)CSc2nnc(C3CC3)n2C2CC2)cc1	/	1	0	-7	41*	-24
O=C1CN(S(=O)(=O)Cc2ccccc2)C[C@@H]2[C@@H](c3ccc(C#CC4CC4)cc3)[C@@H](CO)N12	-21	/	/	/	/	/
COC(=O)c1ccc(C)c(NS(=O)(=O)c2ccc3c(c2)OCCO3)c1	1	5	/	92*	-7	-10
CSc1ccccc1NS(=O)(=O)c1ccc2c(c1)OCCO2	-13	0	/	92*	-5	-8
COC(=O)COc1ccc(S(=O)(=O)Nc2ccccc2SC)cc1	17	-1	-1	127*	0	-18
CN(CC(=O)Nc1ccc(N2CCOCC2)cc1)CC(=O)Nc1ccccc1C#N	0	-4	/	95*	1	-9
Cc1ccc(NC(=O)CN(C)CC(=O)Nc2ccc(N3CCOCC3)cc2)c(C)c1	9	-5	/	/	/	-5
CCN(CC)c1ccc(/C=N/n2nnnc2N)c(O)c1	/	-10	/	-11	44*	-7
COc1ccc(S(=O)(=O)Nc2ccc3c(c2)C(=O)N([C@@H](C)CO)C[C@H](C)[C@H](CN(C)S(=O)(=O)c2ccccc2)OCCCC[C@@H](C)O3)cc1	-2	/	0	/	/	/
CCn1ncc(Br)c1C(=O)Nc1cc(C(=O)OC)ccc1C(=O)OC	-6	/	/	123*	28	/
CCOC(=O)C1=NN(C(=O)c2ccc(OC)cc2)C(O)(c2ccc(Cl)cc2)C1 (stereo not drawn)	/	/	0	/	/	/
CCOC(=O)C1=NN(C(=O)Cc2ccccc2)C(O)(c2ccc(Cl)cc2)C1 (stereo not drawn)	0	-1	/	139*	-1	4
C[C@H](CO)N1C[C@H](C)[C@@H](CN(C)Cc2ccc3c(c2)OCO3)Oc2cc(C#CCN(C)C)ccc2S1(=O)=O	-42	5	0	-55	-9	0
O=C(C[C@@H]1C=C[C@@H](NC(=O)C2CCC2)[C@H](CO)O1)NC1CCC1	-3	1	0	5	-5	20
COc1ccc(Cn2c(-c3ccco3)nc3oc4cc(OC)ccc4c(=O)c3c2=O)cc1	-20	6	/	16	?	-14
COc1ccc(Cn2c(-c3ccco3)nc3oc4ccccc4c(=O)c3c2=O)cc1	7	7	/	3	68*	-4
CC(=O)NC[C@@H]1[C@@H](c2ccc(-c3cccnc3)cc2)[C@H](CO)N1C(=O)C1CCC1	12	4	0	-9	6	-16
C[C@@H]1CN([C@H](C)CO)C(=O)c2cc(NC(=O)Nc3ccc(C(F)(F)F)cc3)ccc2O[C@@H](C)CCCCO[C@@H]1CN(C)Cc1ccc(Cl)c(Cl)c1	-17	-3	0	6	6	-10
CC(C)(C)OC(=O)COc1ccc(/C=N/NC(=O)CN2CCCCC2)cc1	1	3	0	1	52*	-3

Compound profiles, as listed above. Screens in order: PGC1a acetyl inh | PglD DTNB | E-sel inducer | C2C12 statin | esBAF inh | UUG fidelity
`C[C@H](CO)N1C[C@H](C)[C@@H](CN(C)Cc2ccc3c(c2)OCO3)Oc2cc(C#CCN(C)C)ccc2S1(=O)=O` as listed: -42 | 5 | 0 | -55 | -9 | 0
`O=C(C[C@@H]1C=C[C@@H](NC(=O)C2CCC2)[C@H](CO)O1)NC1CCC1` as listed: -3 | 1 | 0 | 5 | -5 | 20
`COc1ccc(S(=O)(=O)Nc2ccc3c(c2)C(=O)N([C@@H](C)CO)C[C@H](C)[C@H](CN(C)S(=O)(=O)c2ccccc2)OCCCC[C@@H](C)O3)cc1` as listed: -2 | / | 0 | / | / | /
`O=C1CN(S(=O)(=O)Cc2ccccc2)C[C@@H]2[C@@H](c3ccc(C#CC4CC4)cc3)[C@@H](CO)N12` as listed: -21 | / | / | / | / | /
`COC(=O)c1ccc(C)c(NS(=O)(=O)c2ccc3c(c2)OCCO3)c1` as listed: 1 | 5 | / | 92* | -7 | -10

(cont.)
SMILES	PGC1a acetyl inh	PglD DTNB	E-sel inducer	C2C12 statin	esBAF inh	UUG fidelity
COc1cccc(N=Nc2c(=O)[nH]n3c(=O)cc(C)[nH]c23)c1	-1	/	/	94*	3	/
O=c1[nH]n2c(=O)c3c([nH]c2c1N=Nc1cccc(Cl)c1)CCC3	0	1	-1	/	/	-26
CC(C)C#Cc1cnc2c(c1)C(=O)N([C@@H](C)CO)C[C@H](C)[C@@H](CN(C)Cc1ccccc1F)O2	6	-2	0	10	-1	5
COc1ccc2c3c(n(C)c2c1)[C@@H](CO)N(Cc1ccccc1)CC31CCN(C(=O)c2ccccc2F)CC1	-1	/	0	/	/	/
C=CCn1c(N)c(C(=O)NCCC2=CCCCC2)sc1=S	-9	-9	/	18	47*	-19
CC1=NN(c2ccccc2)C(=O)/C1=C/c1c(O)n(-c2ccc(F)cc2)[nH]c1=O	7	-11	/	-1	55*	-16
CC1=NN(c2ccccc2)C(=O)/C1=C/c1ccc[nH]1	1	-18	/	-9	50*	-5
CC1=NN(c2ccccc2)C(=O)C1=Cc1ccccc1	0	2	0	2	-5	-7
CC1=NN(c2ccccc2)C(=O)/C1=C/c1ccc(Cl)cc1	8	2	0	-17	-3	1
